Reference: patent US9783573B2, “IAP antagonists” (BRISTOL-MYERS SQUIBB COMPANY, priority 2012, dated 2017)

Target: His-BIR2 (124-240/C202A/C213G) (Homo sapiens (Human), UniProt P98170, C202A/C213G)
Settings: read-out: XIAP-BIR2 AlphaScreen IC50, Biotinylated SMAC peptide

In the case of `CN[C@@H](C)C(=O)N[C@H](C(=O)[C@@H]1C[C@H](NC(=O)[C@@H](CCC(F)(F)F)[C@@H](CCC(F)(F)F)C(=O)Nc2ccc3c(c2)CN(C(=O)[C@@H](NC(=O)[C@H](C)NC)C(C)(C)C)[C@H](C(=O)N[C@@H]2CCCc4ccccc42)C3)CN1C(=O)N[C@@H]1CCCc2ccccc21)C(C)(C)C` [Example 37, (2S,3R)-N^1-((3S,5S)-5-((S)-3,3-dimethyl-2-((S)-2-(methylamino)propanamido)butanoyl)-1-(((R)-1,2,3,4-tetrahydronaphthalen-1-yl)carbamoyl)pyrrolidin-3-yl)-N^4-((S)-2-((S)-3,3-dimethyl-2-((S)-2-(methylamino)propanamido)butanoyl)-3-(((R)-1,2,3,4-tetrahydronaphthalen-1-yl)carbamoyl)-1,2,3,4-tetrahydroisoquinolin-7-yl)-2,3-bis(3,3,3-trifluoropropyl) succinamide], the IC50 is reported as 290 nM.
For `CC[C@H](NC)C(=O)N[C@H](C(=O)N1Cc2cc(OCc3ccc(C(=O)N[C@H]4C[C@@H](C(=O)N[C@@H]5CCCc6ccccc65)N(C(=O)[C@@H](NC(=O)[C@H](C)NC)C(C)(C)C)C4)cc3)ccc2C[C@H]1C(=O)N[C@@H]1CCCc2ccccc21)C(C)(C)C` [Example 43], the IC50 was 700 nM.
`CN[C@@H](C)C(=O)N[C@H](C(=O)N1Cc2ccc(OCc3ccc(C(=O)N[C@H]4C[C@@H](C(=O)NC5CCCc6ccccc65)N(C(=O)[C@@H](NC(=O)[C@H](C)NC)C(C)(C)C)C4)cc3)cc2C[C@@H]1C(=O)NC1CCCc2ccccc21)C(C)(C)C` (stereo partly drawn) [Example 42, (R)-2-((S)-3,3-Dimethyl-2-((S)-2-(methylamino)propanamido)butanoyl)-6-((4-(((3S,5S)-1-((S)-3,3-dimethyl-2-((5)-2-(methylamino)propanamido)butanoyl)-5-(((R)-1,2,3,4-tetrahydronaphthalen-1-yl)carbamoyl)pyrrolidin-3-yl)carbamoyl)benzyl)oxy)-N-((R)-1,2,3,4-tetrahydronaphthalen-1-yl)-1,2,3,4-tetrahydroisoquinoline-3-carboxamide] was tested, and the IC50 was 1300 nM.
`CN[C@@H](C)C(=O)N[C@H](C(=O)N1Cc2cc(NC(=O)C3CC4(C3)CC(C(=O)N[C@H]3C[C@@H](C(=O)N[C@@H]5CCCc6ccccc65)N(C(=O)[C@@H](NC(=O)[C@H](C)NC)C(C)(C)C)C3)C4)ccc2C[C@H]1C(=O)N[C@@H]1CCCc2ccccc21)C(C)(C)C` (stereo partly drawn) [Example 7, N^2-((S)-2-((S)-3,3-Dimethyl-2-((S)-2-(methylamino)propanamido)butanoyl)-3-(((R)-1,2,3,4-tetrahydronaphthalen-1-yl)carbamoyl)-1,2,3,4-tetrahydroisoquinolin-7-yl)-N^6-((3S,5S)-1-((S)-3,3-dimethyl-2-((S)-2-(methylamino)propanamido)butanoyl)-5-(((R)-1,2,3,4-tetrahydronaphthalen-1-yl)carbamoyl)pyrrolidin-3-yl)spiro[3.3]heptane-2,6-dicarboxamide] was tested, and the IC50 was 120 nM.
For `CN[C@@H](C)C(=O)N[C@H](C(=O)N1Cc2cc(NCc3ccc(C(=O)N[C@H]4C[C@@H](C(=O)N[C@@H]5CCCc6ccccc65)N(C(=O)[C@@H](NC(=O)[C@H](C)NC)C(C)(C)C)C4)cc3)ccc2C[C@H]1C(=O)N[C@@H]1CCCc2ccccc21)C(C)(C)C` [Example 31, (S)-2-((S)-3,3-Dimethyl-2-((S)-2-(methylamino)propanamido)butanoyl)-7-((4-(((3S,5S)-1-((S)-3,3-dimethyl-2-((S)-2-(methylamino)propanamido)butanoyl)-5-(((R)-1,2,3,4-tetrahydronaphthalen-1-yl)carbamoyl)pyrrolidin-3-yl)carbamoyl)benzyl)amino)-N—((R)-1,2,3,4-tetrahydronaphthalen-1-yl)-1,2,3,4-tetrahydroisoquinoline-3-carboxamide], the IC50 was 520 nM.
`CN[C@@H](C)C(=O)N[C@H](C(=O)N1Cc2cc(NC(=O)c3ccc4ccn(C(=O)NC5C[C@@H](C(=O)NC6CCCc7ccccc76)N(C(=O)[C@@H](NC(=O)[C@H](C)NC)C(C)(C)C)C5)c4c3)ccc2C[C@H]1C(=O)NC1CCCc2ccccc21)C(C)(C)C` (stereo partly drawn) [Example 53, N^6-((3S)-2-((S)-3,3-Dimethyl-2-((S)-2-(methylamino)propanamido)butanoyl)-3-((1,2,3,4-tetrahydronaphthalen-1-yl)carbamoyl)-1,2,3,4-tetrahydroisoquinolin-7-yl)-N^1-((5S)-1-((S)-3,3-dimethyl-2-((S)-2-(methylamino)propanamido)butanoyl)-5-((1,2,3,4-tetrahydronaphthalen-1-yl)carbamoyl)pyrrolidin-3-yl)-1H-indole-1,6-dicarboxamide] showed an IC50 of 250 nM.
`CN[C@@H](C)C(=O)N[C@H](C(=O)N1Cc2ccc(OCc3ccc(C(=O)N[C@H]4C[C@@H](C(=O)N[C@@H]5CCCc6ccccc65)N(C(=O)[C@@H](NC(=O)[C@H](C)NC)C(C)(C)C)C4)cc3)cc2C[C@H]1C(=O)N[C@@H]1CCCc2ccccc21)C(C)(C)C` [Example 41, (S)-2-((S)-3,3-Dimethyl-2-((S)-2-(methylamino)propanamido)butanoyl)-6-((4-(((3S,5S)-1-((S)-3,3-dimethyl-2-((S)-2-(methylamino)propanamido)butanoyl)-5-(((R)-1,2,3,4-tetrahydronaphthalen-1-yl)carbamoyl)pyrrolidin-3-yl)carbamoyl)benzyl)oxy)-N-((R)-1,2,3,4-tetrahydronaphthalen-1-yl)-1,2,3,4-tetrahydroisoquinoline-3-carboxamide] gave an IC50 of 290 nM.
Work on `CN[C@@H](C)C(=O)N[C@H](C(=O)N1Cc2cc(N(C(=O)C3(C(N)=O)CC3)[C@H]3C[C@@H](C(=O)N[C@@H]4CCCc5ccccc54)N(C(=O)[C@@H](NC(=O)[C@H](C)NC)C(C)(C)C)C3)ccc2C[C@H]1C(=O)N[C@@H]1CCCc2ccccc21)C(C)(C)C` [Example 4, N-((S)-2-((S)-3,3-Dimethyl-2-((S)-2-(methylamino)propanamido)butanoyl)-3-(((R)-1,2,3,4-tetrahydronaphthalen-1-yl)carbamoyl)-1,2,3,4-tetrahydroisoquinolin-7-yl)-N-((3S,5S)-1-((S)-3,3-dimethyl-2-((S)-2-(methylamino)propanamido)butanoyl)-5-(((R)-1,2,3,4-tetrahydronaphthalen-1-yl)carbamoyl)pyrrolidin-3-yl)cyclopropane-1,1-dicarboxamide] yielded an IC50 of 150 nM.
Work on `CN[C@@H](C)C(=O)N[C@H](C(=O)N1C[C@@H](NC(=O)c2ccc(C(=O)Nc3ccc4c(c3)CN(C(=O)[C@@H](NC(=O)[C@@H](NC)C(C)C)C(C)(C)C)[C@H](C(=O)N[C@@H]3CCCc5ccccc53)C4)cc2)C[C@H]1C(=O)N[C@@H]1CCCc2ccccc21)C(C)(C)C` [Example 35] yielded an IC50 of 1400 nM.
For `CN[C@@H](C)C(=O)N[C@H](C(=O)N1Cc2cc(NC(=O)c3ccc(C(=O)Nc4ccc5c(c4)CN(C(=O)[C@@H](NC(=O)[C@H](C)NC)C(C)(C)C)[C@H](C(=O)N[C@H](C)c4ccccc4F)C5)cc3)ccc2C[C@H]1C(=O)N[C@H](C)c1ccccc1F)C(C)(C)C` [Example 12, N^1,N^4-bis((S)-2-((S)-3,3-Dimethyl-2-((S)-2-(methylamino)propanamido)butanoyl)-3-(((R)-1-(2-fluorophenyl)ethyl)carbamoyl)-1,2,3,4-tetrahydroisoquinolin-7-yl)terephthalamide], the IC50 was 2000 nM.
